One assay has as its target human V1a receptor (Homo sapiens, UniProt P37288). Briefly: Cellular in vitro assay for vasopressin receptor activity, V1a receptor cell line (photoprotein luminescence). Particulars: for ratio IC50 hV2/hV1a: selectivity ratio; for IC50: read-out: IC50 hV1a, cell line transfected with human V1a receptor. It is filed as cell-based.
Another assay concerns the target human V2 receptor (Homo sapiens, UniProt P30518). Briefly: Cellular in vitro assay for vasopressin receptor activity, V2 receptor cell line (CRE-luciferase). Particulars: read-out: IC50 hV2, cell line transfected with human V2 receptor. The assay is classed as cell-based.
[1] abbreviates: Table 1B, comparative prior art examples of WO 2011/104322-A1.
[2] abbreviates: Table 1C, comparative prior art examples of WO 2016/071212-A1.

Amino acid sequences for entries named in this document (tags omitted).
UniProt P37288, whole entry: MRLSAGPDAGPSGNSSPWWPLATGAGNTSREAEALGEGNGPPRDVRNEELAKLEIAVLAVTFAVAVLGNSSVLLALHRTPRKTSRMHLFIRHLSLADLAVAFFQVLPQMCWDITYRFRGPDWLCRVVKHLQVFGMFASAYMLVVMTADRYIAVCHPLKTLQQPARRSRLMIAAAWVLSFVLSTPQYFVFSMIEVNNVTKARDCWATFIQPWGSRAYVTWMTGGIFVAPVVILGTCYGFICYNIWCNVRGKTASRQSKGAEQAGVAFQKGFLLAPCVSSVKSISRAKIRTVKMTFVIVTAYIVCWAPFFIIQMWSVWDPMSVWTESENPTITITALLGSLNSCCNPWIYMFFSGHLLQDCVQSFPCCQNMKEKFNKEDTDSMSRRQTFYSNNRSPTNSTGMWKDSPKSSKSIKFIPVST
UniProt P30518, whole entry: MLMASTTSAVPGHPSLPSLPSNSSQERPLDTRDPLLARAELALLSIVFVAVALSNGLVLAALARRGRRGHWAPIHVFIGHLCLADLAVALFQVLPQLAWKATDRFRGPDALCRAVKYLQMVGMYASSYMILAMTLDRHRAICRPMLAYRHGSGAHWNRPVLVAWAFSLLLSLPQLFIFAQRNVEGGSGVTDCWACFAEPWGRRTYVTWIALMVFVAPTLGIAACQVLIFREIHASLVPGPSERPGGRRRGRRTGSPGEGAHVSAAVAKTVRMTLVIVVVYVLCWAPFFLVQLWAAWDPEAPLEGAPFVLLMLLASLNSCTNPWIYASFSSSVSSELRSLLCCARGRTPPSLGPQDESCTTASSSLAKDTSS

Read-outs that look alike come from different tables or passages of the source.

A word on the IC50: it is the point on the concentration scale where inhibition reaches its midpoint. Turning to `NC(=O)Cn1nc(-c2ccccc2Cl)nc1Cn1nc(-c2ccc(Cl)cc2)n(C[C@H](O)C(F)(F)F)c1=O`, at human V1a receptor (setting [1]), the “ratio IC50 hV2/hV1a” value came to 0.053 and the IC50 turned out to be 1320 nM. On human V2 receptor (setting [1]), the IC50 turned out to be 69.9 nM.
On the same counts, the results for `NC(=O)Cn1nc(Cn2nc(-c3ccc(Cl)cc3)n(CC(O)C(F)(F)F)c2=O)nc1Cc1ccccc1C(F)(F)F` (single isomer, unassigned) [WO 2011/104322 Example 64] are 1.049, 32.9 nM and 34.5 nM.
For `O=c1n(Cc2nc(CO)n(-c3ccccc3C(F)(F)F)n2)nc(-c2ccc(Cl)cc2)n1C[C@H](O)C(F)(F)F`, on human V1a receptor (setting [2]), the “ratio IC50 hV2/hV1a” value stood at 8.78.
For the compound `C[C@H](O)c1nc(Cn2nc(-c3ccc(Cl)cc3)n(C[C@H](O)C(F)(F)F)c2=O)nn1-c1ccccc1Cl`, on human V1a receptor (setting [2]), the “ratio IC50 hV2/hV1a” value stood at 3.43 and the IC50 came to 0.6 nM. Moreover, the IC50 at human V2 receptor (setting [2]) amounted to 2.2 nM.
`C[C@@H](O)c1nc(Cn2nc(-c3ccc(Cl)cc3)n(C[C@H](O)C(F)(F)F)c2=O)nn1-c1ccccc1Cl`: the “ratio IC50 hV2/hV1a” value at human V1a receptor (setting [2]) turned out to be 6.48.
On to `NC(=O)C(c1ccccc1Cl)n1cc(Cn2nc(-c3ccc(Cl)cc3)n(C[C@H](O)C(F)(F)F)c2=O)nn1` (some centres unmarked), for which, at human V1a receptor (setting [1]), the “ratio IC50 hV2/hV1a” value stood at 0.170 and the IC50 was found to be 324 nM. The IC50 at human V2 receptor (setting [1]) was found to be 55.1 nM.
As to `NC(=O)c1cc(Cn2nc(-c3ccc(Cl)cc3)n(C[C@H](O)C(F)(F)F)c2=O)cc(-c2ccccc2Cl)c1`, at human V1a receptor (setting [1]), the “ratio IC50 hV2/hV1a” value is 0.03 and the IC50 stood at 2220 nM. In addition, the 50% inhibitory concentration (IC50) on human V2 receptor (setting [1]) stood at 70.7 nM.
For `NC(=O)c1ccc(Cn2nc(-c3ccc(Cl)cc3)n(C[C@H](O)C(F)(F)F)c2=O)cc1-c1ccccc1C(F)(F)F` the same measures were 1.98, 459 nM and 909 nM.
For `O=c1n(Cc2nc(CO)n(-c3ccccc3Cl)n2)nc(-c2ccc(Cl)cc2)n1C[C@H](O)C(F)(F)F`, the “ratio IC50 hV2/hV1a” value on human V1a receptor (setting [2]) is listed as 6.94. Moreover, the IC50 on human V1a receptor (setting [2]) was 1.2 nM; at human V2 receptor (setting [2]), 8.6 nM.
For the compound `NC(=O)Cn1nc(Cc2ccccc2C(F)(F)F)nc1Cn1nc(-c2ccc(Cl)cc2)n(CC(O)C(F)(F)F)c1=O` (single isomer, unassigned) [WO 2011/104322 Example 67], on human V1a receptor (setting [1]), the “ratio IC50 hV2/hV1a” value is reported as 0.462 and the IC50 was found to be 2460 nM. For the same compound, the IC50 on human V2 receptor (setting [1]) came to 1140 nM.
Take `NC(=O)c1ccc(Cn2nc(-c3ccc(Cl)cc3)n(C[C@H](O)C(F)(F)F)c2=O)cc1-c1ccccc1Cl`: at human V1a receptor (setting [1]), the “ratio IC50 hV2/hV1a” value was 0.86 and the IC50 was 280 nM. The IC50 at human V2 receptor (setting [1]) was found to be 241 nM.
For `NC(=O)Cn1nc(Cn2nc(-c3ccc(Cl)cc3)n(CC(O)C(F)(F)F)c2=O)nc1Cc1ccccc1C(F)(F)F` (single isomer, unassigned) [WO 2011/104322 Example 63] the same measures were 0.622, 6.8 nM and 4.2 nM.
For the compound `NC(=O)Cn1nc(Cc2ccccc2C(F)(F)F)nc1Cn1nc(-c2ccc(Cl)cc2)n(CC(O)C(F)(F)F)c1=O` (single isomer, unassigned) [WO 2011/104322 Example 66], at human V1a receptor (setting [1]), the “ratio IC50 hV2/hV1a” value worked out at 0.052 and the IC50 is 1830 nM. Also, the IC50 at human V2 receptor (setting [1]) came to 95 nM.

The values above are taken from patent publication US11091463B2, “Amide-substituted pyridinyltriazole derivatives and uses thereof” (BAYER PHARMA AKTIENGESELLSCHAFT, priority 2016, dated 2021).
